The numbers were not newly measured in US20040014624A1, “Recylable cleaning compositions” (priority 2003, published 2004), which cites them from elsewhere.

The conditions of the data set: known values used for calibration; cited from earlier work.

For the compound `CCCCc1ccccc1` [butyl benzene], the “Log P of alkylbenzene retention time standards” value was 4.18.
